{"source": "ChEMBL document CHEMBL1781933", "about": "“Neurosteroid analogues. 16. A new explanation for the lack of anesthetic effects of δ(16)-alphaxalone and identification of a δ(17(20)) analogue with potent anesthetic activity” (J Med Chem, 2011)", "test_system": "Xenopus laevis", "assay": "Anesthetic effect on Xenopus laevis tadpole assessed as loss of righting reflex", "type": "functional, organism-based", "in_short": "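Xenopus tadpoles were exposed to steroid at five or more concentrations, with 10 or more animals per concentration. Loss of righting or swimming reflex was scored. EC50 and Hill coefficient were fitted from the dose–response curves; mean ± SEM.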"}
{"smiles": "C[C@]12CC[C@@H](O)C[C@@H]1CC[C@@H]1[C@@H]2C(=O)C[C@]2(C)/C(=C\\C#N)CC[C@@H]12", "values": [{"measurement": "EC50", "value": 1.44, "unit": "µM"}]}
